Molecular target: Insulin receptor (Mus musculus, UniProt P15208)
Experiment: Inhibition of Insulin receptor kinase in P19 cells
Type: cell-based

By UniProt entry, the sequences of proteins in these tests, tags left out. Residues count along the entry.
UniProt P15208, 28-748 limits assumed: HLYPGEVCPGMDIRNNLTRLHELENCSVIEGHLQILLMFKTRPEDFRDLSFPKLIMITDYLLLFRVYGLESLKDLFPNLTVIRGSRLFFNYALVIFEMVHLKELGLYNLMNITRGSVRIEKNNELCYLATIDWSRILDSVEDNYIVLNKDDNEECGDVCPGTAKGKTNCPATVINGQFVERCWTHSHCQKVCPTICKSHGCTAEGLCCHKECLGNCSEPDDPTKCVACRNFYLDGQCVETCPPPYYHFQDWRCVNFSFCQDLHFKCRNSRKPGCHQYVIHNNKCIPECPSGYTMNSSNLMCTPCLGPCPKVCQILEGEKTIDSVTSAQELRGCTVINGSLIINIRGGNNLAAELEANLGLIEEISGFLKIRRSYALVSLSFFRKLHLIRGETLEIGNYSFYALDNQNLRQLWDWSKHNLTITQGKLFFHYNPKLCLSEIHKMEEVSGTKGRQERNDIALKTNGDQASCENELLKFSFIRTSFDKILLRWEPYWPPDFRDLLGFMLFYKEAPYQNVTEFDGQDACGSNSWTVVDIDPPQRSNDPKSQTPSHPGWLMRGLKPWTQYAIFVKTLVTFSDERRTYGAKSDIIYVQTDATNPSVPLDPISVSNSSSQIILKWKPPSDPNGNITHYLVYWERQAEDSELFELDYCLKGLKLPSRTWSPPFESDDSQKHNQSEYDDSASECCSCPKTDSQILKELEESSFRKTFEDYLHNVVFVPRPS
UniProt P15208, 753-1372 limits assumed: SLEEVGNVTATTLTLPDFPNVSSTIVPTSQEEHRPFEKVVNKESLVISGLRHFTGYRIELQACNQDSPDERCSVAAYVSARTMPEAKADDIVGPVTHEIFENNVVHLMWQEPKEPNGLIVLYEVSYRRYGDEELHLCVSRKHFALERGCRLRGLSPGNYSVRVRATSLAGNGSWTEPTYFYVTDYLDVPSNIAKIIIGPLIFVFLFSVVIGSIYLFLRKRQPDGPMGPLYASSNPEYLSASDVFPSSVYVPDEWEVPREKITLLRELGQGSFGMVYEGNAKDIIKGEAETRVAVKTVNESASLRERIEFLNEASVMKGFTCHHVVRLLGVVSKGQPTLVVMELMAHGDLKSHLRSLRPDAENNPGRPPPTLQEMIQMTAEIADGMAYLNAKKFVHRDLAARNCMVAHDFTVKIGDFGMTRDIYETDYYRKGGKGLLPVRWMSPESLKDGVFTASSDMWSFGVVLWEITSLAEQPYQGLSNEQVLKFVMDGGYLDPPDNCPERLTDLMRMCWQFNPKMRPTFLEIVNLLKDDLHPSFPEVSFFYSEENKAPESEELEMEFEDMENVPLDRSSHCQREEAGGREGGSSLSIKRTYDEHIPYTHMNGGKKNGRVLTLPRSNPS

## CN[C@@H]1C[C@H]2O[C@@](C)([C@@H]1OC)n1c3ccccc3c3c4c(c5c6ccccc6n2c5c31)C(=O)NC4 [STAUROSPORINE]
  IC50: 200 nM
